# Source: patent US4234691A, “L-Lysine α-oxidase” (Yamasa Shoyu Kabushiki Kaisha, priority 1978, dated 1980)
# What was measured:
# [1] = purified preparation of Example 1; 1 unit = 1 μmol α-keto-ε-aminocaproic acid per minute at 37° C.
# Protocol: The activity of the present enzyme was measured in accordance with Soda's method (Analytical Biochemistry Vol. 25, p. 228, 1968) in the following manner. A reaction mixture consisting of 0.7 ml of 0.1 M potassium phosphate buffer (pH 8.0), 0.1 ml of catalase (750 U/ml), 0.1 ml of 0.1 M L-lysine solution and 0.1 ml of the present enzyme solution was incubated at 37° C. for 20 minutes with gentle shaking. After the incubation the reaction was terminated by the addition of 0.1 ml of 25% trichloroacetic acid. To the resulting reaction mixture were added 1.9 ml of 1 M acetate buffer (pH 5.0) and 0.8 ml of 0.1% 3-methyl-2-benzothiazolone hydrazone hydrochloride solution. The mixture was further incubated at 30° C. for 30 minutes and then allowed to cool to room temperature, after which measurement of optical density at 318 nm was carried out. The formed α-keto-ε -aminocaproic acid thus formed was determined from the resulting calibration curve. One unit of the enzyme was defined as the quantity of the enzyme catalyzing the formation of 1 μmol of α-keto-ε-aminocaproic acid at 37° C. per minute. The relative activity of the enzyme was also assayed by manometric and polarographic determination of the oxygen consumption.
# [2] = incubation at pH 7.4, 20 minutes
substance,measurement,setting,value
L-lysine α-oxidase,Specific activity,[1],85.5 units/mg of protein
same,Temperature up to which the enzyme is stable,[2],up to 55 °C
